Screening data deposited in PubChem by National Center for Advancing Translational Sciences (NCATS).
Shown are actives, neighbours in structure and some others; about 2.2% of the full set was active somewhere.
Nrf2 block = Nrf2 pathway inhibition | AID 504444 | Potency, µM (titrated, usually from 46 µM), without a hit: at the top dose activity change, negative = inhibition, hits mostly inhibitors | actives 2.1% (n = 360,000) | A549 ARE-Fluc reporter, luciferase luminescence, 18-24 h; also: potency is read from the fitted curve at half-maximal effect; % is scaled to controls: 0 for no effect and ±100 for the full control effect; nearly all actives have a fitted effect of over 60% in size
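Cells were seeded and rested 2 h, then exposed to compounds for 18-24 h. CellTiter-Fluor was read first as a viability measure. BugLite was added 15 min before the final luminescent read of ARE-luciferase activity in A549 cells.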
A549 tox = counter-screen for Nrf2 inhibitors: cytotoxicity in A549 cells; A549 ARE-Fluc cells, CellTiter-Fluor viability, 18-24 h; Potency, µM (top dose mostly 46 µM), without a hit: top-dose activity change, negative = cytotoxicity, hits mostly inhibitors; actives 0.16% (n = 390,000); also: potency is read from the fitted curve at half-maximal effect; % is scaled to controls: 0 for no effect and ±100 for the full control effect
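Cytotoxicity counterscreen: CellTiter-Fluor fluorescence was measured in A549 ARE_Fluc cells after 18-24 h of compound exposure in a concentration series. The subsequent BugLite luminescent read reports ARE-luciferase activity.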
miR-21 FLuc = miR-21 reporter, rising signal | HeLa miR-21 FLuc reporter, luciferase, 48 h | Potency, µM (top dose mostly 38.3 µM), inactives show at the top dose reporter change, positive = more light | 340,000 tested, under 10 active | AID 2288; active = well fitted rising curve with a large enough effect; inconclusive = small, poorly fitted or top-dose-only effect; inactive = no such curve, though single readings can be large or run the other way;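 further: % of control where 0% means no effect; miR-21 action dims this reporter so a rising signal means less miR-21 action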
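Luminescence from a firefly luciferase reporter carrying a miR-21 binding site downstream, stably expressed under a CMV promoter in HeLa cells that make miR-21 endogenously, reports miRNA modulation after 48 h compound exposure up to approximately 40uM final.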
Nrf2 activator = Nrf2 pathway activation | AREc32 ARE-luciferase reporter (MCF7-derived line), luminescence, 24 h | Potency, µM (series often up to 46.1 µM), without a hit: at the highest dose activation, most hits filed as activators | actives 0.31% (n = 410,000); also: potency is read from the fitted curve at half-maximal effect; % of control where 0% means no effect; nearly all actives have a fitted effect of over 65% in size
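Steps: seed AREc32_Fluc cells (1000/well, 5% FBS OPTI-MEM); incubate overnight at 37 deg C; add 23 nL compound; incubate 24 hr; add Steady-Glo; hold 30 min RT; read luminescence.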
B2AR arrestin = beta2AR (human) beta-arrestin recruitment activity; AID 492947; beta-arrestin recruitment to beta2AR, cell-based reporter; actives 0.02% (n = 330,000); Potency, µM (highest dose often 46.1 µM), inactives show top-dose activation, usual class: activators;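 also: potency is read from the fitted curve at half-maximal effect; 0% = DMSO controls and full agonism = EC100 isoproterenol or metaproterenol; nearly all actives have a fitted effect of over 65% in size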
* = called active by the depositor; [ ] = remark or other dose. Unless noted, calls follow the shape of the dose curve; as a rule, active = well fitted curve in the direction sought with a large enough effect; inconclusive = small, poorly fitted or top-dose-only effect, or another doubt; inactive = no such curve, though single readings can be large; an effect the other way counts as inactive or inconclusive.

O=C(NC(=S)Nc1cccc(S(=O)(=O)NC2=NCCC2)c1)c1cc(-c2ccco2)nc2ccccc12 was read as Nrf2 block inconclusive, A549 tox -8%, miR-21 FLuc 21%, Nrf2 activator 19% and B2AR arrestin 8%.
CCOC(=O)N1CCc2c(sc3c2c(=O)n(-c2ccc(F)cc2)c(=O)n3CC(=O)c2ccccc2)C1 was read as Nrf2 block 7%, A549 tox -1%, miR-21 FLuc -1% and Nrf2 activator 0%.
Screening Cc1csc(NC(=O)c2cc(-c3ccco3)nc3ccccc23)n1 returned Nrf2 block 10%, A549 tox 3%, miR-21 FLuc 5%, Nrf2 activator 4µM* and B2AR arrestin -1%.
`COC(=O)CC1Oc2ccc(C)cc2-n2cc(-c3ccc(F)cc3)nc21` (stereo unspecified) gave Nrf2 block -8%, A549 tox 6%, miR-21 FLuc 0% and Nrf2 activator 1%.
Screening COc1ccc(CNc2nc(N)nc3nc[nH]c23)cc1 returned Nrf2 block 17% and A549 tox 2%.
CCOC(=O)c1cccc(NC(=O)c2ncoc2-c2ccco2)c1 was read as A549 tox 6%, miR-21 FLuc -9% and Nrf2 activator 3%.
COc1cc(OC)c(-c2c3cc(O)c(=O)cc-3oc3cc(O)c(O)cc23)cc1OC was read as Nrf2 block inconclusive, A549 tox 16µM*, miR-21 FLuc 14%, Nrf2 activator -2% and B2AR arrestin -1%.
Screening O=[S+]([O-])(c1cc2ccccc2o1)N1CCN([S+](=O)([O-])c2c(F)cccc2F)CC1 returned Nrf2 block -11% and A549 tox -3%.
Screening O=C(c1ccc(F)cc1)N1CCC(c2nc(-c3ccc(S(=O)(=O)N4CCCC4)cc3)no2)CC1 returned Nrf2 block -25%, A549 tox 0%, miR-21 FLuc 11% and Nrf2 activator -1%.
For CCc1ccc(C(=O)N2CCC(c3nc(-c4ccc(S(=O)(=O)N5CCCC5)cc4)no3)CC2)cc1 the results were Nrf2 block 12µM*, A549 tox -19%, miR-21 FLuc 20% and Nrf2 activator -1%.
For CN(C)c1ccc2nc3ccc(=[N+](C)C)cc-3sc2c1 the results were Nrf2 block 12µM*, A549 tox inconclusive, miR-21 FLuc inconclusive, Nrf2 activator -2% and B2AR arrestin 0%.
Nc1nc(SCC(=O)O)c2[nH]cnc2n1 was read as Nrf2 block -1% and A549 tox -2%.
For COc1cccc(/C=C/C(=O)c2ccc[nH]2)c1 the results were Nrf2 block inconclusive, A549 tox -2%, miR-21 FLuc -18%, Nrf2 activator 16µM* and B2AR arrestin 0%.
Screening COc1ccc(CN(Cc2ccccc2)C(=O)c2ccc(OC)cc2O)cc1 returned Nrf2 block 3% and A549 tox -4%.
Screening Cc1ccc(CNC(=O)c2oc3ccc(S(=O)(=O)N4CCC(C)CC4)cc3c2C)cc1 returned Nrf2 block -9%[9.27 µM], A549 tox -6%, miR-21 FLuc inconclusive and Nrf2 activator 0%.
Cc1ccc(/C(=N\O)c2oc3c(C)c4oc(=O)cc(C)c4cc3c2C)cc1 was read as Nrf2 block 23µM*, A549 tox inconclusive, miR-21 FLuc -20%, Nrf2 activator 0% and B2AR arrestin 3%.
CCOC(=O)c1ccc2c(c1)n(CC)c(/C=C/N(C)c1ccccc1)[n+]2CC was read as Nrf2 block 3.3µM*, A549 tox inconclusive, miR-21 FLuc inconclusive, Nrf2 activator -1% and B2AR arrestin 0%.
For COc1cccc(-c2nnc3n2N=C(c2c(OC)cccc2OC)CS3)c1 the results were Nrf2 block -9% and A549 tox -2%.
COc1ccc(-c2csc(NC(=O)Cc3cc(OC)c(OC)c(OC)c3)n2)cc1OC was read as Nrf2 block 21µM*, A549 tox inconclusive, miR-21 FLuc 25%, Nrf2 activator 4% and B2AR arrestin 0%.
Screening COc1cc(OC)cc(C(=O)N[C@H](C(=O)Nc2nc(-c3ccc(OC)c(OC)c3)cs2)C(C)C)c1 returned Nrf2 block 7.3µM*, A549 tox -3%, miR-21 FLuc 0%, Nrf2 activator 4% and B2AR arrestin 0%.
For COc1cc(CC(=O)Nc2nc(C)cs2)cc(OC)c1OC the results were Nrf2 block inconclusive, A549 tox -2%, miR-21 FLuc 6%, Nrf2 activator 0% and B2AR arrestin 0%.
`COc1cc(OC)cc(C(=O)N[C@H](C(=O)Nc2nc(-c3cc(OC)ccc3OC)cs2)C(C)C)c1` gave Nrf2 block inconclusive, A549 tox -1%, miR-21 FLuc 6%, Nrf2 activator 3% and B2AR arrestin 0%.
`CCOc1cc(C2CC(=O)Nc3c2c(=O)nc(SCc2cccc(Cl)c2)n3C)ccc1O` (stereo unspecified) gave Nrf2 block 6%, A549 tox 1%, miR-21 FLuc 4% and Nrf2 activator 1%.
O=C1NC(=S)SC1=Cc1ccc2c(c1)OCO2 was read as Nrf2 block inconclusive, A549 tox inconclusive and Nrf2 activator 0%.
O=C1NC(=S)N/C1=C/c1ccc2c(c1)OCO2 was read as Nrf2 block 13µM*, A549 tox inconclusive, miR-21 FLuc 6%, Nrf2 activator -1% and B2AR arrestin 0%.
O=S(=O)(NC1CCCC(NS(=O)(=O)c2c(F)cccc2F)C1)c1ccc2c(c1)OCCO2 (stereo unspecified) was read as Nrf2 block 5% and A549 tox -5%.
`CCCN1CNc2c(c(=O)[nH]c(=S)n2CCc2ccc(C)c(C)c2)C1` gave Nrf2 block inconclusive and A549 tox 3%.
Screening Cc1cccc(C)c1OCc1cc(C(=O)N2CCC(c3ccncc3)CC2)no1 returned Nrf2 block 3%, A549 tox -8%, miR-21 FLuc -14%, Nrf2 activator 3% and B2AR arrestin 0%.
`O=C(c1cc(COc2c(F)cccc2F)on1)N1CCC(c2ccncc2)CC1` gave Nrf2 block 7.3µM*, A549 tox -19%, miR-21 FLuc 13%, Nrf2 activator 3% and B2AR arrestin -1%.
`COC(=O)c1ccsc1NC(=O)CS(=O)(=O)c1ccccc1` gave Nrf2 block -13%, A549 tox -1%, Nrf2 activator -1% and B2AR arrestin 0%.
Screening O=C(CCS(=O)(=O)c1ccccc1)Nc1nncs1 returned Nrf2 block -14%, A549 tox inconclusive, miR-21 FLuc 12%, Nrf2 activator 5% and B2AR arrestin 0%.
`CC(=O)c1sc(Nc2ccccn2)nc1C` gave Nrf2 block inconclusive, A549 tox 14%, miR-21 FLuc -30%, Nrf2 activator 11µM* and B2AR arrestin 0%.

Some of these compounds in order of number of heavy atoms, ascending:
Nc1nc(SCC(=O)O)c2[nH]cnc2n1 was read as Nrf2 block -1% and A549 tox -2%.
For CN(C)c1ccc2nc3ccc(=[N+](C)C)cc-3sc2c1 the results were Nrf2 block 12µM*, A549 tox inconclusive, miR-21 FLuc inconclusive, Nrf2 activator -2% and B2AR arrestin 0%.
`COC(=O)c1ccsc1NC(=O)CS(=O)(=O)c1ccccc1` gave Nrf2 block -13%, A549 tox -1%, Nrf2 activator -1% and B2AR arrestin 0%.
CCOC(=O)c1cccc(NC(=O)c2ncoc2-c2ccco2)c1 was read as A549 tox 6%, miR-21 FLuc -9% and Nrf2 activator 3%.
